Data set [1] in a line: in vitro. To be noted: human.
Data set [2] in a line: Enzymatic stability in rat intestinal homogenate pH 6.5 at 37 °C. To be noted: Sprague-Dawley, pH 6.5, Half-lives, rat intestinal homogenate pH 6.5, 37 °C.

Data on one compound can be found in article PMC3166236 (Journal of medicinal chemistry, 2011).

A value given as a limit tells only on which side of the number the result lay.

The compound `COC(=O)[C@H](Cc1ccc(OP2(=O)CO[C@@H](Cn3ccc(N)nc3=O)CO2)cc1)NC(=O)[C@@H](N)C(C)C` (mixture of isomers) [Compound 12, Methyl (L)-valyl-O-[(5S)-5-[(4-amino-2-oxopyrimidin-1(2H)-yl)methyl]-2-oxido-1,4,2-dioxaphosphinan-2-yl]-(L)-tyrosinate] came in with an IC50 in data set [1] greater than 100 µM. The half-life at 0.5 mg/ml in data set [2] (t1/2 Intestinal Homogenate pH 6.5, Rp isomer) is less than 30 min; in data set [2] (t1/2 Intestinal Homogenate pH 6.5, Sp isomer), less than 30 min.
